This note sets out measurements from PubChem BioAssay AID624037 (The Scripps Research Institute Molecular Screening Center, 2012).

Amino acid sequences for entries named in this document (tags omitted).
UniProt P08912, whole entry, looked up: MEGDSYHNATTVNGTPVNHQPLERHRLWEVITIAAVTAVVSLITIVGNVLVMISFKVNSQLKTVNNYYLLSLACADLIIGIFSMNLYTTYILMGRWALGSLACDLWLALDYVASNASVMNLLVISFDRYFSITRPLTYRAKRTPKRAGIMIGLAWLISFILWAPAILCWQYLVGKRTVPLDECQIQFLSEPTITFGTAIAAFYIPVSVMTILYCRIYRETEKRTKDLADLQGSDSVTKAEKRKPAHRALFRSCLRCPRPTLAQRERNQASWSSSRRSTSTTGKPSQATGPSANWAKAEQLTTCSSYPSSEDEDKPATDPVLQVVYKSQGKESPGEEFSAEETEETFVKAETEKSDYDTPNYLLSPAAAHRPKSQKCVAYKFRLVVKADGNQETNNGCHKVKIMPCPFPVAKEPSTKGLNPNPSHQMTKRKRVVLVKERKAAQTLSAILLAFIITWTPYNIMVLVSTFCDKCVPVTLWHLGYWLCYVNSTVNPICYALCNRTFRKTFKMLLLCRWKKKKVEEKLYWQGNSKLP

Only a part is listed here, and it is no random draw. Calls of active or inactive are those of the source.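 The calls were made as follows: active = activation above the run's mean over test compounds plus 3 SD (cut at about 23% in these data); inactive = the rest.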

The assay has as its target Muscarinic acetylcholine receptor M5 (Homo sapiens) (UniProt P08912). Briefly: CHRM5 activators raising intracellular calcium – CHO-K1 cells, Fluo-8 calcium fluorescence, primary screen (AID 624037).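 Also: signal is peak over basal fluorescence ratio across the kinetic read.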 Particulars: CHO-K1 hM5 cells, at 3 µM, stronger effect = higher value, 0% DMSO wells, 100% maximal acetylcholine response. (In general: Calcium assays in cells follow changes in intracellular calcium, usually with a dye or a luminescent sensor.)
`O=C(Nc1cc([As](=O)(O)O)ccc1O)c1ccccc1`: the activation is inactive: 1.25%.

On to `O=P1(N(CCCl)CCCl)OCCCS1` (configuration not stated), for which the activation was inactive: 7.11%.

Take `COC(=O)C1(C)COP(=O)(Nc2ccccc2)OC1` (configuration not stated): the activation was inactive: 0.16%.

`O=[N+]([O-])c1cccc(NC2=NCC(CBr)S2)c1` (configuration not stated): the activation is inactive: -3.79%.

Take `O=C(O)CNc1ccc([As](=O)(O)O)cc1`: the activation was inactive: -3.19%.

Consider `C/C=C1/C[C@@H](C)[C@](O)(CO)C(=O)OCC2=CCN3CC[C@@H](OC1=O)[C@@H]23`, for which the activation is inactive: -0.69%.

On to `CC(C)(C)C(=O)NC(Sc1ccncn1)C(Cl)(Cl)Cl` (configuration not stated), for which the activation was inactive: -1.61%.

In the case of `O=[N+]([O-])c1ncn(CCn2ncnc2[N+](=O)[O-])n1`, the activation is inactive: -4.71%.

Take `O=[N+]([O-])c1cccc2n[nH]nc12`: the activation was inactive: -5.55%.

As for `CC(=O)N1C2C3N(C(C)=O)C1C1N(C(C)=O)C(C(N1C(C)=O)N3C(C)=O)N2C(C)=O`, the activation is inactive: 0.67%.

With `Cc1ccc(NP(=O)(Oc2ccccc2)Oc2ccccc2)nc1`, the activation was inactive: -4.58%.

In the case of `CCc1nc2c(n1)c1c(non1O)c1c2no[n+]1[O-]`, the activation is inactive: 6.79%.

For the molecule `O=[N+]([O-])c1cc([N+](=O)[O-])c(CCNc2ccccc2)c([N+](=O)[O-])c1`, the activation is inactive: -4.35%.

`COc1ccc(C2=NCC(CBr)S2)cc1` (configuration not stated): the activation is inactive: -1.59%.

Regarding `CC(C)c1nc(Nc2ccccc2)n(P(=O)(N(C)C)N(C)C)n1`, the activation is inactive: 0.36%.

In the case of `CC(C)=N/N=C(\N)N[N+](=O)[O-]`, the activation is inactive: -3.26%.

Turning to `CN(C)C(=O)OCCc1n(C)cc[n+]1C`, the activation is inactive: -7.13%.

Consider `CC1CCN(C(=O)Oc2c(Cl)cc(Cl)c3cccnc23)CC1`, for which the activation is inactive: -3.34%.

`c1cc(-c2nn[nH]n2)ccc1-c1nn[nH]n1`: the activation was inactive: 0.99%.

For `Nc1ccc([As](=O)(O)c2ccc(N)cc2)cc1`, the activation was inactive: 2.37%.

As to `C[N+]1=C2C=CC=CC=C2SC12C([N+](=O)[O-])=CC([N+](=O)[O-])=C[C-]2[N+](=O)[O-]` (configuration not stated), the activation was inactive: 2.29%.

As to `CCN(/C(=N/P(=O)(N1CCOCC1)N1CCOCC1)N1CCOCC1)c1ccc(OC)cc1`, the activation was inactive: -2.92%.
